Measurements as given in patent US8092020B2 (priority 2002, dated 2012).
Like-named read-outs stand apart in the source and are kept apart here.

Tests used:
Sprague-Dawley rat [1] = settings: rats, intraperitoneal (I.P.); cited from earlier work
Sprague-Dawley rat [2] = settings: in vivo, ip
Sprague-Dawley rat [3] = assay: Miosis and pupillary light reflex after I.P. injection of parathion
Sprague-Dawley rat [4] = system: Sprague-Dawley rat

## CCOP(=S)(OCC)Oc1ccc([N+](=O)[O-])cc1
Sprague-Dawley rat [1]
  literature LD50: 2 mg/kg
Sprague-Dawley rat [2]
  LD50: 2.47 mg/kg
Sprague-Dawley rat [3]; 3 μg/kg, light intensity 1.7 cd/m^2 (FIG. 2)
  maximal pupillary contraction observed among all parathion exposed animals: 93.1%
Sprague-Dawley rat [3]; I.P.
  EC50 for loss of pupillary light reflex: 953 ± 69 µg/kg
Sprague-Dawley rat [3]; I.P., 15 minutes post-injection, light intensity 1.7 cd/m^2 (FIG. 2)
  extrapolated EC50 for miosis (percent pupillary contraction): 147 ± 36 ng/kg
Sprague-Dawley rat [4]; 3 μg/kg, light intensity 1.7 cd/m^2 (FIG. 3)
  maximal pupillary contraction observed among all parathion exposed animals: 93.1%
Sprague-Dawley rat [4]; direct ocular exposure
  first dose group in which all animals lacked the pupillary light reflex: 0.01 mg/kg
Sprague-Dawley rat [4]; direct ocular exposure, 3 minutes application
  EC50 for loss of the light reflex: 2.8 ± 0.9 µg/kg
